Molecular target: DPP-4 (Mus musculus, UniProt P28843)
Settings: wild-type or eNOS-deficient mice treated or not treated with sitagliptin; FIG. 3b

Chains of the proteins cited; added tags and fusions are not shown. Lines headed by an entry give the natural chain unless they say otherwise; changes in a name come on top.
UniProt P28843: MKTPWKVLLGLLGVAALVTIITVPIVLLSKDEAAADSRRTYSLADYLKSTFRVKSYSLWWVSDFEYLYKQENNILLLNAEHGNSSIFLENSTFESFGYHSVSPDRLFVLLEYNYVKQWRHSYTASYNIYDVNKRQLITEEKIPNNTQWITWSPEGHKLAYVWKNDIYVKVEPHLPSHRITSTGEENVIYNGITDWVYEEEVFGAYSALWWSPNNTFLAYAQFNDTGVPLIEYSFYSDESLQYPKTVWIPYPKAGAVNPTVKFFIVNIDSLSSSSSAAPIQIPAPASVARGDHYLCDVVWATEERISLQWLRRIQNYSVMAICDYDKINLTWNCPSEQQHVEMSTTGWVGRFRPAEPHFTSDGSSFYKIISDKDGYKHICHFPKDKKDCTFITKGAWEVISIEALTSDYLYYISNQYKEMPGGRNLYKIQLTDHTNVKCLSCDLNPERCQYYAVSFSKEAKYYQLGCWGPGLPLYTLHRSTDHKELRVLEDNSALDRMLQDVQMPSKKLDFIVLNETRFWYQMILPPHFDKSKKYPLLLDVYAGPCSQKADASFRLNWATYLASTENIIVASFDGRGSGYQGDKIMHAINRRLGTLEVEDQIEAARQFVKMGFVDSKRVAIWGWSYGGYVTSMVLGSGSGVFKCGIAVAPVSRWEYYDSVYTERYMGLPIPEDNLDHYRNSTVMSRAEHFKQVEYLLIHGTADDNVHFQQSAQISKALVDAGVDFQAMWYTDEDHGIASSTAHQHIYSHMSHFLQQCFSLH

protein concentration of inactivated IGF-1 bound to IGFBP3 in plasma: reduced
SMILES: N[C@@H](CC(=O)N1CCn2c(nnc2C(F)(F)F)C1)Cc1cc(F)c(F)cc1F [sitagliptin]

From US20180031580A1, “USE OF IGF-1 AS PROGNOSTIC FACTOR IN CALCIFICATION OF AORTIC VALVES” (THE ASAN FOUNDATION, priority 2015, published 2018)
